{"sequences": {"note": "Protein sequences, listed by entry. Tags and fused reporters are not part of them.", "UniProt O75530, whole entry": "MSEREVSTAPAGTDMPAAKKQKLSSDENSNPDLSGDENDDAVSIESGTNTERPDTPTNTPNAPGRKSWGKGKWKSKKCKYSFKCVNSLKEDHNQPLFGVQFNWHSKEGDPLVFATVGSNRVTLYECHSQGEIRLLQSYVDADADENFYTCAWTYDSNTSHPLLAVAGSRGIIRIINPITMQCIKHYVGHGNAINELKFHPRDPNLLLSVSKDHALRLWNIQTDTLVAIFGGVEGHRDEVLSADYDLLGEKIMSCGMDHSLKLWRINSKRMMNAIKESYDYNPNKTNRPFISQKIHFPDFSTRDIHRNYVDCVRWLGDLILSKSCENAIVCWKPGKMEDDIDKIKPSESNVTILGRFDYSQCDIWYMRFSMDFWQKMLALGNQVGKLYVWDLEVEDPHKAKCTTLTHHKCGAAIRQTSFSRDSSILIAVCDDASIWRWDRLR"}, "source": "ChEMBL document CHEMBL3351265", "about": "“Astemizole arrests the proliferation of cancer cells by disrupting the EZH2-EED interaction of polycomb repressive complex 2” (J Med Chem, 2014)", "target": "Polycomb protein EED (Homo sapiens, UniProt O75530)", "experiment": "Displacement of FITC-labeled EZH2 peptide from recombinant N-terminal 6His-tagged EED (residues 81 to 441) (unknown origin) expressed in Escherichia coli strain BL21 (DE3) after 1 hr by fluorescence polarization assay"}
{"smiles": "COc1ccc(CCN2CCC(Nc3nc4ccccc4n3Cc3ccc(F)cc3)CC2)cc1", "note": "[ASTEMIZOLE]", "values": [{"measurement": "IC50", "result": 93.8, "unit": "µM"}]}
